{"sequences": {"note": "The chains behind the UniProt entries cited, without tags or fusion partners. Where a name states a change or a piece, a line headed by the entry shows the natural chain unless it says otherwise.", "UniProt Q12809": "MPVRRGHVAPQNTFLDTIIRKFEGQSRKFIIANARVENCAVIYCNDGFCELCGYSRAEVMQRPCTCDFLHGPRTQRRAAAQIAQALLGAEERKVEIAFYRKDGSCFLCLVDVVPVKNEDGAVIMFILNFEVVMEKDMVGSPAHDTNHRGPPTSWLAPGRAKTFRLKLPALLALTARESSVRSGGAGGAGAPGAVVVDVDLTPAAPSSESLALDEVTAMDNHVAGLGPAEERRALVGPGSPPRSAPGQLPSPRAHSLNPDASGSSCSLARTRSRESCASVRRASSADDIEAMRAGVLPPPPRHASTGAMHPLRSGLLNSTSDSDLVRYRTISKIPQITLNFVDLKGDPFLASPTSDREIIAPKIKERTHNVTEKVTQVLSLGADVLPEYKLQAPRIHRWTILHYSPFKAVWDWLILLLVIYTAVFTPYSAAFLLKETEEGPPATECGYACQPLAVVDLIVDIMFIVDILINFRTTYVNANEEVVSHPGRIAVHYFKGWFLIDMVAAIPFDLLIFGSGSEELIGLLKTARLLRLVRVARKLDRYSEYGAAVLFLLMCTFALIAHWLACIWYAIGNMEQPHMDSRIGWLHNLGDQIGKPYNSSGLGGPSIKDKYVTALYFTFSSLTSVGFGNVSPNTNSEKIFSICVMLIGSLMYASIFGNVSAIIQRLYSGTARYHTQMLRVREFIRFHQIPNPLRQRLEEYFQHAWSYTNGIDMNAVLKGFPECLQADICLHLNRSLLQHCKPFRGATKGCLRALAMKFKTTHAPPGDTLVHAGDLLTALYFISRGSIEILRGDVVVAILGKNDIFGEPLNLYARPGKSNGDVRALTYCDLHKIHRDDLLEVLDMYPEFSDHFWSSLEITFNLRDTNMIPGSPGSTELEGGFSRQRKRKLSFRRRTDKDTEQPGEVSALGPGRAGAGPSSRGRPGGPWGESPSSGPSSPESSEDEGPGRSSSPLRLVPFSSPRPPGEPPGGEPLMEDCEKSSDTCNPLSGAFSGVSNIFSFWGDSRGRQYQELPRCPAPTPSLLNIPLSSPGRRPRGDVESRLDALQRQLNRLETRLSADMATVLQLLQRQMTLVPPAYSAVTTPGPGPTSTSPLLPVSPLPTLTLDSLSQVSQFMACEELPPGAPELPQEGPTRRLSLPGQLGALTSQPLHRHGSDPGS"}, "source": "patent US20080227100A1", "about": "“METHOD FOR ESTIMATING hERG INHIBITION OF DRUG CANDIDATES USING MULTIVARIATE PROPERTY AND PHARMACOPHORE SAR” (priority 2007, published 2008)", "biological_target": "hERG channel (Homo sapiens, UniProt Q12809)", "data": [{"smiles": "COc1cc(N)c(Cl)cc1C(=O)NC1CCN(CCCOc2ccc(F)cc2)CC1OC", "note": "(stereo not shown) [cisapride]", "values": [{"measurement": "inhibition of recombinant hERG currents", "value": "inhibit recombinant hERG currents"}]}]}
